The source of these data is US4540700A, “Treatment of diabetic complications with certain spiro-imidazolidine-diones” (Alcon Laboratories, Inc., priority 1984, dated 1985).

pIC50: −log10 of the molar value.

The experiment concerns the target Rat Aldose Reductase (Rattus norvegicus, UniProt P07943). The experiment in a line: Rat Aldose Reductase Inhibition. Format: biochemical. As to the method:
Compounds A to U were tested for their ability to inhibit aldose reductase enzyme activity via the procedure of P. F. Kador, L. O. Merola and J. H. Kinoshita as described in Documenta Ophthamologica, 18 (1979) 117.
*According to the procedures of P. F. Kador and N. E. Sharpless,
Biophysical Chemistry, 8 (1978) 81-85; P. F. Kador, L. O. Merola and J. H
Kinoshita Documenta Ophthamologica, 18 (1979) 117.

The term pIC50 denotes the IC50 on a negative log10 scale, so that one unit is a factor of ten. Lower therefore signals a high IC50. On to `O=C1NC(=O)C2(CCOc3ccc(F)cc32)N1` (centres unmarked) [Sarges Resolved, dSpiro-(6-fluorochroman-4,4imidazolidine)-2',5dione, reference compound], for which the pIC50 was 6.82.

In the case of `O=C1NC(=O)C2(CCOc3ccc(F)cc32)N1` (racemic) [Sarges Racemic, dl-spiro-(6-fluorochroman-4,4'-imidazolidine)-2',5'-dione, reference compound], the pIC50 was 6.37.
